This note sets out measurements from ChEMBL document CHEMBL4033769, “Simple Tetrahydroisoquinolines Are Potent and Selective Kappa Opioid Receptor Antagonists” (ACS Med Chem Lett, 2017).

The chains behind the UniProt entries cited, without tags or fusion partners. Where a name states a change or a piece, a line headed by the entry shows the natural chain unless it says otherwise.
UniProt P41143, whole entry: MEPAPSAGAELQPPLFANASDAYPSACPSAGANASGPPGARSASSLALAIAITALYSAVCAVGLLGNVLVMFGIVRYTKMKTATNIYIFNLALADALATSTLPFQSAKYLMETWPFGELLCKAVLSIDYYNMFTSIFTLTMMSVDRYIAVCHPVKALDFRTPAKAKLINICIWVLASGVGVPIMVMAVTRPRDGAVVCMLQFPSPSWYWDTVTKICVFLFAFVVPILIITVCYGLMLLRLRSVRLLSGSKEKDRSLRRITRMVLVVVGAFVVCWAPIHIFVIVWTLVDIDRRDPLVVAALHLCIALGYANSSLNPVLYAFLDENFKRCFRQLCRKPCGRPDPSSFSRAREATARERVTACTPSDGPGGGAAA
UniProt P41145: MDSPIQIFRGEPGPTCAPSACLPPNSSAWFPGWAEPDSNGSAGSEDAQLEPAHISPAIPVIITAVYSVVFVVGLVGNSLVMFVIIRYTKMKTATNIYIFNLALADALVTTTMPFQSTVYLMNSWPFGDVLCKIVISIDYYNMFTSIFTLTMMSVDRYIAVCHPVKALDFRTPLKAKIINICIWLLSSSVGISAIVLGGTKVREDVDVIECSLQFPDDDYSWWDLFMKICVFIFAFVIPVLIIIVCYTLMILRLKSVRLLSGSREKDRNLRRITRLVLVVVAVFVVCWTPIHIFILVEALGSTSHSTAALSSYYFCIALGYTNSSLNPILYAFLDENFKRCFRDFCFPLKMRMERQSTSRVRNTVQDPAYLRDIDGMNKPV

The target in assay [1] is Delta-type opioid receptor (Homo sapiens) (UniProt P41143).
Assay [2] concerns the target Kappa-type opioid receptor (Homo sapiens) (UniProt P41145).

As to `CC(C)[C@@H](CN1CCCCC1)NC(=O)[C@H]1Cc2ccc(O)cc2CN1`, the Ke in assay [1] was more than 3000 nM; in assay [2], 6.8 nM.
